For assay [1], the target named is T1, human c-MET (human, UniProt P08581 25-1390). The assay can be described thus: cell-based or functional assay.
In assay [2] the target is T1, human c-MET. In words: flow cytometry on MKN45 cells (highly express c-MET). An excerpt:
A flow cytometer (Beckman, model Cytoflex) was used to detect the interaction between anti-human EGFR/c-MET bispecific antibodies and their conjugates and human gastric cancer cells MKN45 (Nanjing Cobioer Biosciences) and human gastric cancer cells overexpressing human EGFR MKN45-EGFR (Kelun-Biotech), human lung squamous cell carcinoma EBC-1 (Nanjing Cobioer Biosciences), human lung squamous cell carcinoma EBC-1-EGFR overexpressing human EGFR (Kelun-Biotech), human non-small cell lung cancer cell HCC827 (ATCC™), and human epidermal squamous cell carcinoma cell A431 (Nanjing Cobioer Biosciences). The protocol was as follows.
The adherent cells were digested with Trypsin-EDTA solution (0.25%) (Shanghai BasalMedia) and the cell density adjusted to 4.0×10⁶ per mL. The cells were washed twice with 1% BSA and resuspended in 1% BSA solution. Then 50 μL cell suspension was added to each well of a 96-well plate (the number of cells was 2×10⁵ per well). The antibody and its conjugate were diluted with 1% BSA (final concentration 10 µg/mL, 3-fold gradient dilution, a total of 11 concentration points). Then 50 μL of the diluted antibody and ADC were added to the wells of the 96-well plate and the plate was incubated at 4° C. for 60 minutes. […]

B1: ADC 38B-A-05 (bispecific antibody, human IgG1, kappa, L234A L235A)
light: not shown
heavy: not shown
chain: DIQMTQSPSSLSASVGDRVTITCKSSQSLLYTSSQKNYLAWYQQKPGKAPKLLIYWASTRESGVPSRFSGSGSGTDFTLTISSLQPEDFATYYCQQYYAYPWTFGQGTKVEIKGGGGSGGGGSGGGGSEVQLVESGGGLVQPGGSLRLSCAASGYTFTSYWLHWVRQAPGKGLEWVGMIDPSNSDTRFNPNFKDRFTISADTSKNTAYLQMNSLRAEDTAVYYCATYRSYVTPLDYWGQGTLVTVSSGGGGDKTHTCPPCPAPEAAGGPSVFLFPPKPKDTLMISRTPEVTCVVVDVSHEDPEVKFNWYVDGVEVHNAKTKPREEQYNSTYRVVSVLTVLHQDWLNGKEYKCKVSNKALAAPIEKTISKAKGQPREPQVCTLPPSRDELTKNQVSLSCAVKGFYPSDIAVEWESNGQPENNYKTTPPVLDSDGSFFLVSKLTVDKSRWQQGNVFSCSVMHEALHNHYTQKSLSLSPGK
modifications: linker-payload A-05 on reduced Cys sulfhydryls (sites not given); DAR of the whole ADC approximately 6
Consider B1, for which the “IC50, in vitro cell killing (CCK8) on MKN45 cells” value in assay [1] turned out to be 0.41 nM.

B2: ADC 38B-A-14 (bispecific antibody, human IgG1, kappa, L234A L235A)
light: not shown
heavy: not shown
chain: B1 chain
modifications: linker-payload A-14 on reduced Cys sulfhydryls (sites not given); DAR of the whole ADC approximately 6
For the molecule B2, in assay [2], the midpoint of the response, the EC50, lay at 0.68 nM.

(Values after US20250161474A1 (SICHUAN KELUN BIOTECH BIOPHARMACEUTICAL, published 2025).)
